Yeast UUG start: yeast start codon fidelity modulation | S. cerevisiae UUG-firefly luciferase reporter, luminescence/redox ratio | activity score, % at 18.7 µM | 0.13% of 350,000 active | AID 602363;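 active means replicate mean at a twofold rise or more, about +100% in these data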;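 further: firefly luciferase made from a UUG start codon reports start codon fidelity; reporter light over untreated wells divided by growth signal over untreated wells; some hits fall short of that in this replicate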
E-selectin induc: E-selectin induction on HUVECs; AID 686992; HUVEC E-selectin immunofluorescence imaging; normalized: neutral wells 0, TNF-alpha wells 100; activation, % at 7.58 µM; 260,000 tested, 0.37% active;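 active means mean E-selectin-positive cell signal at least 10% of the positive control, reached in at least 60% of replicates, without over 20% cell loss; inconclusive means no rule given, readout overlaps actives, possibly toxicity-flagged; inactive means the rest, including those meeting only one limit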
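Assay system: HUVEC primary endothelial cells. Input: 3,000 HUVEC seeded per well. Doses: one compound dose added by pin transfer. Read-out basis: % PE-positive cells. Benchmarks: TNF-alpha high, DMSO low. Detection: immunofluorescence imaging. Buffer or medium: EGM-2, gelatin.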
RAD52 anneal inh: RAD52 (human) annealing inhibition | inhibition, % at 18.7 µM | recombinant RAD52 DNA annealing, FRET fluorescence | AID 651710 | P43351 | 360,000 tested, 0.46% active;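 active means every replicate showing at least 50% inhibition; inconclusive means mean inhibition at least 50% but not in every replicate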
RAD54 branch: RAD54 (human) branch migration inhibition. inhibition, % at 10.4 µM. AID 602329. 360,000 tested, 0.14% active. Q92698. RAD54 Holliday junction branch migration, FAM/BHQ fluorescence;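 active means mean normalized replicate activity at least 40 and at least half of replicates scoring 40 or more; inconclusive means only one of the two criteria met; inactive means mean below 40 and under half of replicates reaching 40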;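 further: 0% = median of neutral control wells and 100% = median of positive control wells; inhibitors cause a drop in the FAM fluorescence signal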
SIRT5 block: blocks human SIRT5 desuccinylation of peptide; Purified SirT5, succinyl-peptide AMC, trypsin-coupled fluorescence; inhibition, % at 15 µM; 330,000 tested, 1.1% active; in the data active means inhibition above about 15%; inconclusive means no clear call, values can overlap the other calls
MLL AF4-AF9 inh: blocks AF4 peptide binding to human AF9. P42568. AlphaScreen, biotin-AF4 peptide binding to FLAG-AF9. inhibition, % at 10 µM. 350,000 tested, 0.47% active;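 active means every replicate reaching a set inhibition limit, whatever the replicate mean, cut at about 25% in these data; inconclusive means mean inhibition reaches that limit but some replicates miss it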;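 further: 0% = plate neutral control median and 100% = total signal loss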
DNA binder FP: DNA binding artifact in RAD52 counter-screen; shares compounds with RAD52 anneal inh; Salmon sperm DNA/acridine orange FP displacement; AC50, µM; 1,000 tested, 8% active; AID 652128;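 active means fitted half-maximal concentration for signal loss at or below twice the highest dose tested, in every separate run, actives reach about 64 µM in these data; inconclusive means runs disagree, or flat partial signal loss, or poor fit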
Active calls of the source: *; i = inactive; ? = inconclusive; . = no result given. Rows were chosen to be rich in hits. Some 1.8% of all compounds tested hit in one or more screens of this group.

Keys – A = Yeast UUG start; B = E-selectin induc; C = RAD52 anneal inh; D = RAD54 branch; E = SIRT5 block; F = MLL AF4-AF9 inh; G = DNA binder FP
1. O=C1Nc2cc(C(=O)NCCCN3CCCC3)ccc2S/C1=C\c1ccccc1
  A: -8 | B: . | C: 84* | D: 10 | E: 1 | F: 16 | G: i

2. COc1ccc(/C=C2\Sc3ccc(C(=O)NCCCN4CCCC4)cc3N(C)C2=O)cc1OC
  A: -10 | B: . | C: 66* | D: 24 | E: 4 | F: 5 | G: i

3. CC(NC(=O)CCc1ccccc1)c1ccc2c(c1)OCO2 (stereo unspecified)
  A: -16 | B: -1 | C: 108* | D: 4 | E: 4 | F: -9 | G: i

4. C[C@H]1CN([C@@H](C)CO)C(=O)c2c(c3ccccc3n2C)-c2ccccc2CO[C@H]1CN(C)Cc1cccnc1
  A: . | B: -4 | C: 4 | D: -5 | E: 5 | F: -5 | G: .

5. COc1ccc2c3c([nH]c2c1)[C@H](CO)N(C(=O)c1cccc(F)c1)CC31CN(C(C)=O)C1
  A: . | B: 0 | C: -16 | D: . | E: 1 | F: 2 | G: .

6. COc1ccc(-c2cnc3c(c2)C(=O)N([C@@H](C)CO)C[C@@H](C)[C@@H](CN(C)C(=O)C2CCCCC2)O3)cc1
  A: . | B: 1 | C: 1 | D: -2 | E: -3 | F: -2 | G: .

7. O=[N+]([O-])c1ccc2c(c1)c1ccccc1n2CCO
  A: 4 | B: 0 | C: -17 | D: 6 | E: -1 | F: -3 | G: .

8. CCN(CC)CC(O)Cn1c(C)c(-c2ccccc2)c2cc([N+](=O)[O-])ccc21 (stereo unspecified)
  A: -11 | B: . | C: 64* | D: 24 | E: -1 | F: 37* | G: i

9. C[C@H](c1ccccc1)N1C[C@@H](COCc2ccccc2)Oc2cc(N3CC[C@H](N(C)C)C3)ccc2S1(=O)=O
  A: . | B: 0 | C: 51* | D: . | E: -5 | F: 17 | G: i

10. C#CCOCCOCCOCCNc1nc(N2CCN(C(=O)[C@H](CCCCN)n3cc([C@@H](N)C(C)CC)nn3)CC2)nc(N2CCN(C(=O)[C@H](Cc3ccc(O)cc3)n3cc([C@@H](N)CC(C)C)nn3)CC2)n1 (stereo partly specified)
  A: 28 | B: 0 | C: 92* | D: 20 | E: -2 | F: 30* | G: i

11. C#CCOCCOCCOCCNc1nc(N2CCN(C(=O)[C@H](CO)n3cc([C@@H](N)C(C)C)nn3)CC2)nc(N2CCN(C(=O)[C@H](CCCCN)n3cc([C@@H](N)[C@H](C)CC)nn3)CC2)n1
  A: 21 | B: 0 | C: 61* | D: -26 | E: -5 | F: 42* | G: i

12. CC[C@H](C)Cc1cn([C@@H](CCCCN)C(=O)NCCCCCCCCCCC(=O)N2CCNCC2)nn1
  A: -8 | B: 0 | C: 77* | D: -3 | E: . | F: ? | G: i

13. C#CCOCCOCCOCCNc1nc(N2CCN(C(=O)C(Cc3ccc(O)cc3)n3cc(C(N)C(C)CC)nn3)CC2)nc(N2CCN(C(=O)C(Cc3ccc(O)cc3)n3cc(C(N)C(C)CC)nn3)CC2)n1 (stereo unspecified)
  A: -5 | B: 0 | C: -25 | D: -9 | E: . | F: 9 | G: .

14. C#CCOCCOCCOCCNc1nc(N2CCN(C(=O)[C@H]([C@@H](C)CC)n3cc([C@@H](N)CO)nn3)CC2)nc(N2CCN(C(=O)[C@H](CCCCN)n3cc([C@@H](N)CO)nn3)CC2)n1
  A: 15 | B: 0 | C: 24 | D: 6 | E: -2 | F: 2 | G: .

15. C#CCOCCOCCOCCNc1nc(N2CCN(C(=O)Cn3cc(CCCN=C(N)N)nn3)CC2)nc(N2CCN(C(=O)[C@H](CCCCN)n3cc(CCCC)nn3)CC2)n1
  A: 7 | B: 0 | C: 51* | D: -22 | E: -4 | F: 15 | G: i

Only DNA binder FP and E-selectin induc, for 2 of the compounds above:
entry | smiles | DNA binder FP | E-selectin induc
6 | COc1ccc(-c2cnc3c(c2)C(=O)N([C@@H](C)CO)C[C@@H](C)[C@@H](CN(C)C(=O)C2CCCCC2)O3)cc1 | . | 1
13 | C#CCOCCOCCOCCNc1nc(N2CCN(C(=O)C(Cc3ccc(O)cc3)n3cc(C(N)C(C)CC)nn3)CC2)nc(N2CCN(C(=O)C(Cc3ccc(O)cc3)n3cc(C(N)C(C)CC)nn3)CC2)n1 (stereo unspecified) | . | 0

Later entries
Keys – A = Yeast UUG start; B = E-selectin induc; C = RAD52 anneal inh; D = RAD54 branch; E = SIRT5 block; F = MLL AF4-AF9 inh; G = DNA binder FP
16. O=C(C1CCCC1)N1[C@H](CO)[C@H](c2ccccc2)C12CN(CCC(F)(F)F)C2
  A: . | B: 1 | C: -18 | D: . | E: -2 | F: 4 | G: .

17. CCCC(=O)Nc1ccc2c(c1)C(=O)N(C)[C@@H]1CC[C@H](CC(=O)NCC3CC3)O[C@@H]1CO2
  A: -2 | B: 0 | C: -3 | D: -6 | E: -1 | F: -2 | G: .

18. C/C=C/c1ccc2c(c1)[C@@H]1[C@@H](CCN1C(=O)Cc1cccnc1)[C@H](CO)N2C
  A: 0 | B: 0 | C: 3 | D: -25 | E: 7 | F: 17 | G: .

19. C[C@@H](C(=O)N(C)C[C@H]1OCc2ccccc2-c2ccccc2C(=O)N([C@@H](C)CO)C[C@@H]1C)c1ccccc1
  A: . | B: 0 | C: 2 | D: 8 | E: 3 | F: -1 | G: .

Screening data as filed in PubChem BioAssay.
